This is an account of results in US20160274108A1, “DIAGNOSTIC METHODS FOR PAR4 ANTAGONIST THERAPY” (BRISTOL-MYERS SQUIBB COMPANY, priority 2013, published 2016).

Amino acid sequences for entries named in this document (tags omitted). Residues count along the entry.
UniProt Q96RI0, 48-385 limits assumed: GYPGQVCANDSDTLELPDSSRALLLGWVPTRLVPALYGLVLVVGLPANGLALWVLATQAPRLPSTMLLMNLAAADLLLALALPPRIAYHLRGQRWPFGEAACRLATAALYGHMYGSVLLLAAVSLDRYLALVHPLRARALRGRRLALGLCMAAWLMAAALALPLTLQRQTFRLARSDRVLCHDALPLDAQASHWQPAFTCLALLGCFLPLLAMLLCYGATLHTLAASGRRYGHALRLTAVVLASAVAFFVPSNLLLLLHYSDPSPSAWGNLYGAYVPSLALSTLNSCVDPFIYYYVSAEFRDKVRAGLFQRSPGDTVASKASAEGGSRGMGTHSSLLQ

SMILES strings stand for the structures.

The test addresses washed platelet suspension (Homo sapiens, UniProt Q96RI0). Briefly: PAR4 agonist peptide induced platelet aggregation assay (96-well microplate). Type of test: cell-based. The conditions noted are these: read-out: ED50 (μM) [Platelet Aggregation]; washed platelets, 37° C., read at 405 nm up to 15 minutes.
As for `CC(C)C[C@H](NC(=O)[C@H](Cc1ccoc1)NC(=O)CNC(=O)[C@@H]1CCCN1C(=O)[C@H](Cc1ccc(F)cc1)NC(=O)[C@H](C)N)C(=O)N[C@H](C(N)=O)C(C)C`, the EC50 was 4.1 µM.

`CC(C)C[C@H](NC(=O)[C@H](Cc1ccncc1)NC(=O)CNC(=O)[C@@H]1CCCN1C(=O)[C@H](Cc1ccc(F)cc1)NC(=O)[C@H](C)N)C(=O)N[C@H](C(N)=O)C(C)C`: the EC50 stood at 1.7 µM. The result for `CC(C)C[C@H](NC(=O)[C@H](Cc1ccccc1)NC(=O)CNC(=O)[C@@H]1CCCN1C(=O)[C@H](Cc1ccc(F)cc1)NC(=O)[C@H](C)N)C(=O)N[C@H](C(N)=O)C(C)C` reads 1.2 µM; that for `CC(C)C[C@H](NC(=O)[C@H](Cc1c[nH]cn1)NC(=O)CNC(=O)[C@@H]1CCCN1C(=O)[C@H](Cc1ccc(F)cc1)NC(=O)[C@H](C)N)C(=O)N[C@H](C(N)=O)C(C)C`, 106 µM; that for `CC(C)C[C@H](NC(=O)[C@H](Cc1cscn1)NC(=O)CNC(=O)[C@@H]1CCCN1C(=O)[C@H](Cc1ccc(F)cc1)NC(=O)[C@H](C)N)C(=O)N[C@H](C(N)=O)C(C)C`, 5.5 µM.

For the compound `CC(C)C[C@H](NC(=O)[C@@H](Cc1c[nH]c2ccccc12)NC(=O)CNC(=O)[C@@H]1CCCN1C(=O)[C@H](Cc1ccc(F)cc1)NC(=O)[C@H](C)N)C(=O)N[C@H](C(N)=O)C(C)C`, the EC50 is 12.3 µM. The figure for `CC(C)C[C@H](NC(=O)[C@H](Cc1c[nH]c2ccc(O)cc12)NC(=O)CNC(=O)[C@@H]1CCCN1C(=O)[C@H](Cc1ccc(F)cc1)NC(=O)[C@H](C)N)C(=O)N[C@H](C(N)=O)C(C)C` is 0.97 µM.

`CC(C)C[C@H](NC(=O)C(Cc1c[nH]c2ccc(Br)cc12)NC(=O)CNC(=O)[C@@H]1CCCN1C(=O)[C@H](Cc1ccc(F)cc1)NC(=O)[C@H](C)N)C(=O)N[C@H](C(N)=O)C(C)C` (some centres unmarked): the EC50 worked out at 0.67 µM. As for `CC(C)C[C@H](NC(=O)[C@H](Cc1ccsc1)NC(=O)CNC(=O)[C@@H]1CCCN1C(=O)[C@H](Cc1ccc(F)cc1)NC(=O)[C@H](C)N)C(=O)N[C@H](C(N)=O)C(C)C`, the EC50 was found to be 1.6 µM.

`CC(C)C[C@H](NC(=O)[C@@H]1Cc2c([nH]c3ccccc23)CN1C(=O)CNC(=O)[C@@H]1CCCN1C(=O)[C@H](Cc1ccc(F)cc1)NC(=O)[C@H](C)N)C(=O)N[C@H](C(N)=O)C(C)C`: the EC50 was determined as 37 µM. The figure for `CC(C)C[C@H](NC(=O)[C@H](Cc1ccc(O)cc1)NC(=O)CNC(=O)[C@@H]1CCCN1C(=O)[C@H](Cc1ccc(F)cc1)NC(=O)[C@H](C)N)C(=O)N[C@H](C(N)=O)C(C)C` is 0.79 µM; for `CC(C)C[C@H](NC(=O)[C@H](Cc1cccnc1)NC(=O)CNC(=O)[C@@H]1CCCN1C(=O)[C@H](Cc1ccc(F)cc1)NC(=O)[C@H](C)N)C(=O)N[C@H](C(N)=O)C(C)C` it is 1 µM; for `CC(C)C[C@H](NC(=O)[C@H](Cc1ccccn1)NC(=O)CNC(=O)[C@@H]1CCCN1C(=O)[C@H](Cc1ccc(F)cc1)NC(=O)[C@H](C)N)C(=O)N[C@H](C(N)=O)C(C)C` it is 52 µM. `CC(C)C[C@H](NC(=O)[C@H](C/C=C/c1ccccc1)NC(=O)CNC(=O)[C@@H]1CCCN1C(=O)[C@H](Cc1ccc(F)cc1)NC(=O)[C@H](C)N)C(=O)N[C@H](C(N)=O)C(C)C`: the EC50 worked out at 3 µM.
